pIC50: −log10 of the molar value. Read-outs that look alike come from different tables or passages of the source.
Assays:
MEIS1 = conditions: for reduction of MEIS1 expression: end of Cycle 1
[1] = tested on: peripheral blasts and white blood cells; assay: peripheral blasts and white blood cells in treated patients; conditions: 600 mg on-target, Cycle 1 (28 days), Ph1a and 1b
G331D menin = conditions: menin-MLL binding assay; cited from earlier work
[2] = patient disposition in Phase 1 study
MEN1-M327I = assay: MEN1 resistance mutation analysis by RNA sequencing of patient samples
[3] = preclinical differentiation and apoptosis; conditions: preclinical studies
M327I-mutant MEN1 = conditions: M327I menin, menin-MLL binding assay; cited from earlier work
[4] = NPM1-m 600 mg N=20, cutoff 12 Apr 2023

CNc1nc(NC2CCN(Cc3ccc4c(cc(C#N)n4C[C@H](C)N4CCN(S(C)(=O)=O)CC4)c3C)CC2)c2cc(CC(F)(F)F)sc2n1
reduction of MEIS1 expression (MEIS1; 200 mg, two patients): no reduction was detected
reduction of MEIS1 expression (MEIS1; 600 mg, four patients): more than 85%
target gene expression at 800 mg (MEIS1; 800 mg): did not provide evidence of further knockdown
mean change from baseline in peripheral blasts and white blood cells [1]: transient increases in these blood chemistry markers over the first one to two weeks, followed by reductions in these markers during the remainder of the first cycle
pIC50 (G331D menin): 5.70
Treatment discontinuation - Adverse event [2, 4]: 5 (25) %
Treatment discontinuation - Death [2, 4]: 1 (5) %
Treatment discontinuation - Disease progression (including clinical) [2, 4]: 9 (45) %
relatedness of adverse events leading to discontinuation [2, 4]: ^bAll adverse events leading to discontinuation were not considered study drug related.
treatment discontinued due to death ([2]; NPM1-m 600 mg N=20, cutoff 30 Aug 2023): 5%
Treatment discontinuation - Adverse Events ([2]; Ph1b 200 mg n=17): 2 (11.8) %
Treatment discontinuation - Death ([2]; Ph1b 200 mg n=17): 4 (23.5) %
Treatment discontinuation - Disease progression (inc. clinical) ([2]; Ph1b 200 mg n=17): 5 (29.4) %
Treatment discontinuation - Adverse Events ([2]; Ph1b 600 mg n=36): 4 (11.1) %
Treatment discontinuation - Death ([2]; Ph1b 600 mg n=36): 3 (8.3) %
Treatment discontinuation - Disease progression (inc. clinical) ([2]; Ph1b 600 mg n=36): 11 (30.6) %
patients discontinued due to an adverse event ([2]; Ph1b, 53 patients): six
patients developing resistance mutation MEN1-M327I (MEN1-M327I; 1 of 29 patients): 3.4%
additional MEN1 resistance mutations (MEN1-M327I; 29 treated patients): No additional resistance mutations were detected
terminal differentiation and scheduled apoptosis [3]: drive terminal differentiation and scheduled apoptosis
pIC50 (M327I-mutant MEN1): 7.15

Reference: patent US20260382613A1, “METHODS OF TREATING ACUTE LEUKEMIA” (published 2026)
